Protein sequences, listed by entry. Tags and fused reporters are not part of them.
UniProt P63224, whole entry: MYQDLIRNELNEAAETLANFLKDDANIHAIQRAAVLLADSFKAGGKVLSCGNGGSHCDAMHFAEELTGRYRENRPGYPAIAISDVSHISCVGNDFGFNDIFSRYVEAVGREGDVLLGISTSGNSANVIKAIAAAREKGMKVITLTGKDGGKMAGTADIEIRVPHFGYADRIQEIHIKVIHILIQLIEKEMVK

In paper PMC11056994, “Potentiating Activity of GmhA Inhibitors on Gram-Negative Bacteria” (Journal of Medicinal Chemistry, 2024):

Target: E. coli GmhA (Escherichia coli, UniProt P63224)
Assay type: biochemical
Conditions: luminescence assay, mean ± SD of at least 3 independent experiments
Description: The ability of these analogues to inhibit LPS biosynthesis in wild-type E. coli was also visualized on silver-stained LPS SDS-PAGE electrophoretic images (Figure 2) using strain C7 (018:K1:H7), which is a newborn meningitis E. coli strain containing inner- and outer-core oligosaccharides as well as the O-antigen. Inhibition was monitored by formation of the heptose-deficient Re LPS, which only comprises lipid A and Kdo, and the EC50 data are reported in Table 1.
The assay buffer “AB” contained 50 mM HEPES, pH 7.5, 1 mM MnCl2, 25 mM KCl, 0.012% Triton-X100, 1 mM dithiothreitol (DTT), and 0.1 μM myelin basic protein (MBP, Sigma, ref M1891). The following components were added in a white polystyrene Costar plate up to a final volume of 30 μL: 10 μL of inhibitor dissolved in DMSO/water 50/50 and 20 μL of GmhA of E. coli in AB. After 30 min of preincubation at room temperature, 30 μL of the substrate mixture in AB were added in each well to give a final volume of 60 μL. […] Luminescence intensity was immediately measured on a Luminoskan instrument (Thermofisher) and converted into inhibition percentages. […]

## O=CN(O)C[C@H](O)[C@H](O)[C@H](O)CC(F)(F)P(=O)(O)O [Compound 84]
  IC50: 220 ± 30 nM
